The text below walks through data of ChEMBL document CHEMBL2384918, “Identification of Selective Nanomolar Inhibitors of the Human Neuraminidase, NEU4” (ACS Med Chem Lett, 2013).

This assay addresses T1, Sialidase-4 (Homo sapiens, UniProt Q8WWR8).
T1 sequence (Q8WWR8 whole entry): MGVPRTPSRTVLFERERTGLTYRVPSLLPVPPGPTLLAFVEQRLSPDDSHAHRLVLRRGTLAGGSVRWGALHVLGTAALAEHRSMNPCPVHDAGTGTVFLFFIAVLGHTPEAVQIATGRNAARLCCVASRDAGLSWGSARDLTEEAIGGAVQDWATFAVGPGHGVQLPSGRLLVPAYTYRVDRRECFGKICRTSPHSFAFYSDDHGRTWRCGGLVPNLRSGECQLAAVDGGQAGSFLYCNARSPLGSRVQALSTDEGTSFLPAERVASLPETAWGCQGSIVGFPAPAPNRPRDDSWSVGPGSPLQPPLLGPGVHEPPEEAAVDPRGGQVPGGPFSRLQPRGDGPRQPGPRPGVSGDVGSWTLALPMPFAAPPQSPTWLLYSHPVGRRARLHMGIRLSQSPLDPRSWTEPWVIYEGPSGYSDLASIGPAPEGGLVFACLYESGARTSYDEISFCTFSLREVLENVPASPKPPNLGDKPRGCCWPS
As to the kind of experiment: Inhibition of human NEU4 using GM3 as substrate preincubated for 30 mins before substrate addition measured after 1 hr by fluorescence plate reader analysis.

Molecule `CC(=O)N[C@H]1[C@H]([C@H](O)[C@H](O)CO)OC(C(=O)O)=C[C@@H]1O` [NEU5AC2EN] displayed an IC50 of 260 µM.

What is called IC50 is the point on the concentration scale where inhibition reaches its midpoint. The low end stands for greater potency in that assay, the high end for weaker potency in that assay.
